Measurements from patent publication US5644053A, “Penam derivatives” (Hoffmann-La Roche Inc., priority 1994, dated 1997).

Chains of the proteins cited; added tags and fusions are not shown. Residues count along the entry.
UniProt P05193, 21-381: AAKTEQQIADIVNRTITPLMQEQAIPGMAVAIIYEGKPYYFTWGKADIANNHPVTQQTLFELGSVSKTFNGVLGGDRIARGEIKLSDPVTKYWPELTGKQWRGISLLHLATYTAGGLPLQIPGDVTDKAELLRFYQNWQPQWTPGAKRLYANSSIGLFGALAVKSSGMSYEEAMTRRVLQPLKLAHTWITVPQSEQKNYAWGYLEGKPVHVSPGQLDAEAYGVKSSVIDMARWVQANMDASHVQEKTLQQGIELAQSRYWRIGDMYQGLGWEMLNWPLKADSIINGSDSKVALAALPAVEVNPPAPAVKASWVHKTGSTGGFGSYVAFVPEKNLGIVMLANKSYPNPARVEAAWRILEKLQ

Molecular target: β-lactamase (Citrobacter freundii, UniProt P05193)
Conditions: read-out: IC50 C. freundii 1982 (β-lactamase inhibition); isolated enzyme; nitrocefin substrate, pH 7.0, 37° C., 15 min pre-incubation

How did the IC50 turn out when `C[C@]1(/C=C/C#N)[C@H](C(=O)O)N2C(=O)C[C@H]2S1(=O)=O` [5c (trans nitrile), Sodium (E)-(2S,3S,5R)-3-(2-cyanoethenyl)-3-methyl-4,4,7-trioxo-4-thia-1-aza-bicyclo[3.2.0]heptane-2-carboxylate] was run?
The IC50 was 696 nM.

Which IC50 does the source give for `CCOC(=O)/C=C/[C@@]1(C)[C@H](C(=O)O)N2C(=O)C[C@H]2S1(=O)=O` [2c (trans ethyl ester), Sodium (E)-(2S,3S,5R)-3-(2-ethoxycarbonyl-vinyl)-3-methyl-4,4,7-trioxo-4-thia-1-aza-bicyclo[3.2.0]heptane-2-carboxylate] here?
The IC50 was 370 nM.
